We go through 2 compounds from US20090043129A1 (priority 2005, published 2009).

Protein sequences, listed by entry. Tags and fused reporters are not part of them.
UniProt P47746, whole entry: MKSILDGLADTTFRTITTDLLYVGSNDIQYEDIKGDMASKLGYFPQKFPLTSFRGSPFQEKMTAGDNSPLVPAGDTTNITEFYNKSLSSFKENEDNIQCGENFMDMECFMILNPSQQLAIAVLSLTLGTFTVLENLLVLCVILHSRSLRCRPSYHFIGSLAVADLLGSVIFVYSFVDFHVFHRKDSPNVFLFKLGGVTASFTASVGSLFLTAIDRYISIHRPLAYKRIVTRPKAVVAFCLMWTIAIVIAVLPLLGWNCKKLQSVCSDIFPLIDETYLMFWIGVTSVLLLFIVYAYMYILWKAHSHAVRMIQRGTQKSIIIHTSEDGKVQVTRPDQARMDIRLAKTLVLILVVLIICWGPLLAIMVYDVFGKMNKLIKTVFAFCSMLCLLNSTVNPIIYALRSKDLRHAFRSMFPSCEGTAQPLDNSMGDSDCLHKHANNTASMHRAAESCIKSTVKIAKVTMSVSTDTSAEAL
UniProt P21554, whole entry: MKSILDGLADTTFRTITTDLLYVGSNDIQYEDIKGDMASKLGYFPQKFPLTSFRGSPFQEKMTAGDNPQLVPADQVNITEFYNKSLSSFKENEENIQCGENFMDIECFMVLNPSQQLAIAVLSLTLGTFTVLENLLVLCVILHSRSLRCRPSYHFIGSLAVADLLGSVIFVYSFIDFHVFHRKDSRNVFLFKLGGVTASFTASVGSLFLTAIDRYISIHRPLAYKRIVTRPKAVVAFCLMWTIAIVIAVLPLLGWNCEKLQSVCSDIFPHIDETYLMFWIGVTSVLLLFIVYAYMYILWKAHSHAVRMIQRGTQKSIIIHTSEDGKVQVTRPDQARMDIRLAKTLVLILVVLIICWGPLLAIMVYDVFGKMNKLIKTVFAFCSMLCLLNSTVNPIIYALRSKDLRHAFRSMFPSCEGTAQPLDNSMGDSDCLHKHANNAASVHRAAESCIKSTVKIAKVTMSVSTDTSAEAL

The target of assay [1] is T1, CB1 cannabinoid receptors (Mus musculus, UniProt P47746).
T1 construct: N18TG2 mouse neuroblastoma cells, which constitutively and selectively express the CB 1 cannabinoid receptors; endogenous in cells; host or cells: N18TG2 mouse neuroblastoma cells
In words: Forskolin-induced cyclic AMP in N18TG2 neuroblastoma cells. In kind it is cell-based. The following applies: cAMP. On the procedure: After incubation, 800 μl of methanol were added, cells were extracted and cyclic AMP was determined with a cyclic AMP assay kit (Amersham, UK), in accordance with the supplier's recommendations.

For assay [2], the target named is human recombinant CB1 receptor (Homo sapiens, UniProt P21554). It is filed as binding. Details: purchased Perkin-Elmer; host or cells: COS cells.

Regarding `Cc1c(C(=O)c2cccc3ccccc23)c2cccc3c2n1[C@H](CN1CCOCC1)CO3` [WIN, 55-212, reference compound], the “functional behaviour at CB1 receptors” value in assay [1] is reported as “agonist”.

Consider `CCCCCCc1ccc(O)cc1OCCCCCCCCCCC(=O)NCCO` [Compound 51, 11-(2-Hexyl-5-hydroxy-phenoxy)-undecanoic acid (2-hydroxy-ethyl)-amide], for which, in assay [2], the inhibition constant (Ki) amounted to 1130 nM.

Broadly, the Ki is a measure of affinity in units of concentration, obtained from inhibition or displacement.
